Experiment [1] has as its target β-catenin/E-cadherin interaction (Homo sapiens (Human), UniProt P35222). Format: binding. The note with it: read-out: Ki ± SD β-catenin/E-cadherin; FP selectivity assay; mean ± SD, n = 3.
Experiment [2] addresses β-catenin/APC-R3 interaction (Homo sapiens (Human), UniProt P35222). It is filed as binding. The note with it: read-out: Ki ± SD β-catenin/APC; FP selectivity assay; mean ± SD, n = 3.

Chains of the proteins cited; added tags and fusions are not shown. Residues count along the entry.
UniProt P35222, 138-781 limits assumed: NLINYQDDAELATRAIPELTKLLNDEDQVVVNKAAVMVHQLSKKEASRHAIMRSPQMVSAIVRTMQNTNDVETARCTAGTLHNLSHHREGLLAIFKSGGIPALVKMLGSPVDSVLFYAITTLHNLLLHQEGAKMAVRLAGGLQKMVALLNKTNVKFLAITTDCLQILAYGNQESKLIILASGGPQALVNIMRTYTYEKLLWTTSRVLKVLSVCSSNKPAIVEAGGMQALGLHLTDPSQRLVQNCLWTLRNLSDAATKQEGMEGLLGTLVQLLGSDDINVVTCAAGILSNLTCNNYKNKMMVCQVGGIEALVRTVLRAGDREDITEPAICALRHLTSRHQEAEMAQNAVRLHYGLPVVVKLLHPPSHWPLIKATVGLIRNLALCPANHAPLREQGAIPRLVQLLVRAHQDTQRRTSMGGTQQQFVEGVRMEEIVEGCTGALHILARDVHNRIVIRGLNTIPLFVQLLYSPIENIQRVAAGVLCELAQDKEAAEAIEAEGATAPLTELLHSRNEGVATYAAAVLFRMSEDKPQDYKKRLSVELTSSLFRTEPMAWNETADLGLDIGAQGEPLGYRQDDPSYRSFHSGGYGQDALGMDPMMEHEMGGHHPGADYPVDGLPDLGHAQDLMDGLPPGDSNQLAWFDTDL

Consider 1 compound from patent publication US20250289848A1, “PEPTIDOMIMETIC INHIBITORS OF B-CATENIN/TCF PROTEIN-PROTEIN INTERACTION” (H. LEE MOFFITT CANCER CENTER AND RESEARCH INSTITUTE, INC., priority 2018, published 2025).

Molecules are shown by their SMILES.

Regarding `O=C(O)CC[C@H](NC(=O)[C@H](Cc1nn[nH]n1)NC(=O)[C@H](Cc1ccc2ccccc2c1)NC(=O)c1cc2c(Cl)cc(Cl)cc2[nH]1)C(=O)Nc1ccc(OC(F)(F)F)cc1` [Compound 57, (S)-4-((S)-2-((S)-2-(4,6-Dichloro-1H-indole-2-carboxamido)-3-(naphthalen-2-yl)propanamido)-3-(2H-tetrazol-5-yl)propanamido)-5-oxo-5-((4-(trifluoromethoxy)phenyl)amino)pentanoic acid], the figures for the Ki in experiment [1] and in experiment [2] were 13 ± 0.6 µM and 173 ± 15 µM, respectively.
